# In BindingDB's records for doi:10.1074/jbc.273.36.23321 (Synaptic Pharmaceutical, 1998):
# Assays:
# Galanin receptor type 3 [1] = target: T1, Galanin receptor type 3 (Rattus norvegicus, UniProt O88626)
# T1 sequence (O88626 whole entry): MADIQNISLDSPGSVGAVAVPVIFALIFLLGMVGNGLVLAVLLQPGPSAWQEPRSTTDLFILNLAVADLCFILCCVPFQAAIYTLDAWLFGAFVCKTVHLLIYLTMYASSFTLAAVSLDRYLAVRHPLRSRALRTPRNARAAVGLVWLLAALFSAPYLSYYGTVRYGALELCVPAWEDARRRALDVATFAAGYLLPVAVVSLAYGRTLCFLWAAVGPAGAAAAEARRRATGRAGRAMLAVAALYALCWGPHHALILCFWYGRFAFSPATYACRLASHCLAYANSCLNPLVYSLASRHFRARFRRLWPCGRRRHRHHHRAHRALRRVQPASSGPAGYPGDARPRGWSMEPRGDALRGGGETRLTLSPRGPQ
# Galanin receptor type 3 [2] = target: T2, Galanin receptor type 3 (Homo sapiens, UniProt O60755)
# T2 sequence (O60755 whole entry): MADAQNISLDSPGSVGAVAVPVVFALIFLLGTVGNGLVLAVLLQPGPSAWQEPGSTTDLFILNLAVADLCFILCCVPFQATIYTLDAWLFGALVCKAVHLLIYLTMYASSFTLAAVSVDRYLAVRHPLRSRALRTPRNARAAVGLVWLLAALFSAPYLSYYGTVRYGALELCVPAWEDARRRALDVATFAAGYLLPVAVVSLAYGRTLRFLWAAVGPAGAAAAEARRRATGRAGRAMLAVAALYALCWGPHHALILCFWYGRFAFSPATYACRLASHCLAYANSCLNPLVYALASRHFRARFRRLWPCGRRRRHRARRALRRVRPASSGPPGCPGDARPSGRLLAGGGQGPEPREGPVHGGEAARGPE
smiles,measurement,setting,value
"CC[C@H](C)[C@H](NC(=O)[C@H](C)NC(=O)[C@H](Cc1cnc[nH]1)NC(=O)[C@@H]1CCCN1C(=O)CNC(=O)[C@H](CC(C)C)NC(=O)[C@H](CC(C)C)NC(=O)[C@H](Cc1ccc(O)cc1)NC(=O)CNC(=O)[C@H](C)NC(=O)[C@H](CO)NC(=O)[C@H](CC(N)=O)NC(=O)[C@H](CC(C)C)NC(=O)[C@@H](NC(=O)[C@H](Cc1c[nH]c2ccccc12)NC(=O)CN)[C@@H](C)O)C(=O)O [Galanin (1-16), rat]",Ki,Galanin receptor type 3 [1],0.0891 µM
"CC[C@H](C)[C@H](NC(=O)[C@H](C)NC(=O)[C@H](Cc1c[nH]cn1)NC(=O)[C@@H]1CCCN1C(=O)CNC(=O)[C@H](CC(C)C)NC(=O)[C@H](CC(C)C)NC(=O)[C@H](Cc1ccc(O)cc1)NC(=O)CNC(=O)[C@H](C)NC(=O)[C@H](CO)NC(=O)[C@H](CC(N)=O)NC(=O)[C@H](CC(C)C)NC(=O)[C@@H](NC(=O)[C@@H](Cc1c[nH]c2ccccc12)NC(=O)CN)[C@@H](C)O)C(=O)N[C@@H](CC(=O)O)C(=O)N[C@@H](CC(N)=O)C(=O)N[C@@H](Cc1c[nH]cn1)C(=O)N[C@@H](CCCNC(=N)N)C(=O)N[C@@H](CO)C(=O)N[C@@H](Cc1ccccc1)C(=O)N[C@@H](Cc1c[nH]cn1)C(=O)N[C@@H](CC(=O)O)C(=O)N[C@@H](CCCCN)C(=O)N[C@@H](Cc1ccc(O)cc1)C(=O)NCC(=O)N[C@@H](CC(C)C)C(=O)N[C@@H](C)C(N)=O [Galanin [D-Trp2], porcine]",Ki,Galanin receptor type 3 [2],1 µM
"CC[C@H](C)[C@H](NC(=O)[C@H](C)NC(=O)[C@H](Cc1cnc[nH]1)NC(=O)[C@@H]1CCCN1C(=O)CNC(=O)[C@H](CC(C)C)NC(=O)[C@H](CC(C)C)NC(=O)[C@H](Cc1ccc(O)cc1)NC(=O)CNC(=O)[C@H](C)NC(=O)[C@H](CO)NC(=O)[C@H](CC(N)=O)NC(=O)[C@H](CC(C)C)NC(=O)[C@@H](NC(=O)[C@H](Cc1c[nH]c2ccccc12)NC(=O)CN)[C@@H](C)O)C(=O)N[C@@H](CC(=O)O)C(=O)N[C@@H](CC(N)=O)C(=O)N[C@@H](Cc1cnc[nH]1)C(=O)N[C@@H](CCCN=C(N)N)C(=O)N[C@@H](CO)C(=O)N[C@@H](Cc1ccccc1)C(=O)N[C@@H](Cc1cnc[nH]1)C(=O)N[C@@H](CC(=O)O)C(=O)N[C@@H](CCCCN)C(=O)N[C@@H](Cc1ccc(O)cc1)C(=O)NCC(=O)N[C@@H](CC(C)C)C(=O)N[C@@H](C)C(N)=O [Galanin, Porcine]",Ki,Galanin receptor type 3 [2],0.00977 µM
